## Measured affinities in a library of Ab-91 heavy chain variants

Reference: Engelhart et al. 2022, doi:10.1038/s41597-022-01779-4. File: FLAb, binding data.

Target peptide (SARS-CoV-2 spike, HR2 region): PDVDLGDISGINAS

Parent: Ab-91, a human scFv built as VL, a 15-residue (Gly4Ser)3 linker, VH. Only the CDRs of the heavy chain vary.
VL: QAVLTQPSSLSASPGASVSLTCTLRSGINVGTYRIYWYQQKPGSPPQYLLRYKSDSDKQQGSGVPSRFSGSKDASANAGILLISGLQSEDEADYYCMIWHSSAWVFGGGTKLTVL
VH: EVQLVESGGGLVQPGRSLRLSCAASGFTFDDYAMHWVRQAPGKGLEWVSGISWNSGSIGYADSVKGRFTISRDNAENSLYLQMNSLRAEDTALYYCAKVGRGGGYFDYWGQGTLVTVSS

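The parent was found by panning a naive human phage display library on the peptide. Variants in AAYL51 differ from the parent at up to three CDR positions; double and triple changes were sampled at random. The scFvs were displayed on barcoded MATa yeast, the peptide on MATalpha yeast. Binding brings cells together so that they mate, and sequencing counts the barcode pairs among the diploids. A regression on co-assayed BCL2-family reference pairs converts the normalised counts of each replicate to an apparent Kd. The assay was run in three technical replicates.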

Each variant is given by its three heavy chain CDRs, as the data file delimits them; those of the parent are GFTFDDYAMH, GISWNSGSIGYADSVK, VGRGGGYFDY. This list gathers variants with a substitution at G102 (VH, numbered from residue 1). Each Kd is an estimate from the mating assay, the geometric mean of the replicates in which the pair was seen; lower is stronger. An entry "nd" has no value in the source: the pair was not observed among the diploids in any replicate. This suggests poor binding but is not conclusive. Parent in this assay: reference entry 72 nM, copy in this library 7.5 nM. Nonspecific signal, from three strains lacking the peptide, appeared in 21% of pairings of library AAYL51, centred on 34 µM (5% of these signals below 1.8 µM); values are not corrected for it. The control count says in how many pairings with the empty strains this scFv gave a signal.

* GFTFDDYAMH | GISWNSGSIGYADSVK | VGIQGGYFIY = nd (0 of 3 replicates; controls 0 of 9)
* GFTFDDYAMH | GISWNSGSIGYRDSVK | VGRNSGYFDY = 75 µM (2 of 3 replicates; controls 5 of 9)
* GFTFDDYAMH | GISWNSGSIGYAVSVK | VGRFGGYFDS = 49 µM (1 of 3 replicates; controls 4 of 9)
* GFTFDDYAMH | GISWTSGSIGYADDVK | VGRWGGYFDY = nd (0 of 3 replicates; controls 0 of 9)
* GFTFDDYAMH | GISWNSGSIGYADSVK | AGRFGVYFDY = 25 nM (3 of 3 replicates; controls 8 of 9)
* GFTFDRYAMH | GISWNSGSIGYADSVK | VGRCGGYFDY = 16 nM (3 of 3 replicates; controls 1 of 9)
* GFTMDDYAMH | GISWNSGSIGYADSVK | VGRKGHYFDY = 5.3 µM (1 of 3 replicates; controls 1 of 9)
* GFTFDDYAMH | GISWNSGSIGYADSVK | RGMMGGYFDY = nd (0 of 3 replicates; controls 0 of 9)
* GFTFDDYAMH | PISWNSGSIGGADSVK | VGRNGGYFDY = nd (0 of 3 replicates; controls 2 of 9)
* DFTCDDYAMH | GISWNSGSIGYADSVK | VGREGGYFDY = nd (0 of 3 replicates; controls 1 of 9)
* GFTFDDYAMH | GISWSSGSIGYADSVK | VGRHGLYFDY = nd (0 of 3 replicates; controls 0 of 9)
* GFTFDDYAMH | GISWNSGSIGSADSVN | VGRAGGYFDY = 220 µM (2 of 3 replicates; controls 5 of 9)
* GFTFDDYAMH | GISWNSGSRGYADSVK | VGRVGGYFDD = 46 µM (2 of 3 replicates; controls 2 of 9)
* GFTFDDYAMH | GISWNSGSIDYADSVK | VGRQGGYFDY = nd (0 of 3 replicates; controls 0 of 9)
* GFTFDDYAMH | GIPWNSGSIGYADSVK | VGRDGGFFDY = 400 µM (1 of 3 replicates; controls 0 of 9)
* GFTFDDYAMH | GISWNSGSIGYGDSVK | VGRFGGYFDG = nd (0 of 3 replicates; controls 0 of 9)
* GFTFDNYAMH | GISWNSVSIGYADSVK | VGRAGGYFDY = 21 nM (3 of 3 replicates; controls 4 of 9)
* GFTFHDYAMH | GISWNSGSIGYADSVK | VGFKGGYFDY = 140 nM (3 of 3 replicates; controls 3 of 9)
* GFTFDDYAMH | GISWNSGSIGGADSVK | VGRHGGAFDY = 47 µM (2 of 3 replicates; controls 1 of 9)
* GFTFDDYAMH | GISWNSGSIGHHDSVK | VGRNGGYFDY = nd (0 of 3 replicates; controls 0 of 9)
* GFTFDDYADH | GISWNSGSIGYADSVK | VGRMGGYFDY = 52 µM (1 of 3 replicates; controls 3 of 9)
* GFLFDDYAMH | GISRNSGSIGYADSVK | VGRPGGYFDY = 8.9 µM (2 of 3 replicates; controls 1 of 9)
* GFTFDDYAMH | GISWNSGSIGYADSVK | VWRFGGYFEY = nd (0 of 3 replicates; controls 0 of 9)
* GFTFNDYAMH | GISWNSGSIGYADSVK | VGRIGGYFDY = nd (0 of 3 replicates; controls 0 of 9)
* GFTFDDYAMH | WISWNSGSIFYADSVK | VGRSGGYFDY = nd (0 of 3 replicates; controls 1 of 9)
* GFTFDDYAMH | GISWNSGSIGYADSVK | VGRRGGYFDM = nd (0 of 3 replicates; controls 0 of 9)
* GFTFDDYAMH | GVSWNSGSIGYALSVK | VGRWGGYFDY = nd (0 of 3 replicates; controls 0 of 9)
* GFTFDDYAMH | GISWNSGSIDYADSVK | VGRMPGYFDY = nd (0 of 3 replicates; controls 4 of 9)
* GFTFWDYAMH | GISWNSGSIGYADSVK | LGRSGGYFDY = 5.6 µM (1 of 3 replicates; controls 5 of 9)
* GFTFDDYAMK | GISWNSGSIGYADSVK | VSRCGGYFDY = 45 µM (2 of 3 replicates; controls 3 of 9)
* GFTFFDYAMP | GISWNSGSIGYADSVK | VGRFGGYFDY = nd (0 of 3 replicates; controls 1 of 9)
* GFTFDDYAMH | GISWSSGSIGYADSVK | VGRKGGGFDY = 54 nM (3 of 3 replicates; controls 6 of 9)